PubChem BioAssay (NCATS)
What follows is the remainder of the data, with few or none of the hits. Inconclusive results are not listed. Active and inactive are the calls of the source. The call rests on the fitted dose curve; in most records, active means well fitted inhibition curve with a large enough effect; inconclusive means small, poorly fitted or top-dose-only effect; inactive means flat fitted curve, though single readings scatter.

What follows are compounds tested on MCC-26 (assay: qHTS assay to identify novel small-molecules to repurpose for Merkel cell carcinoma treatment (AID 1296009; further: nearly all actives have a fitted effect of over 60% in size)). Settings: MCC and control cell lines, CellTiter-Glo viability, 72 h; at 46 µM (top of the series).
Procedure, shortened: (§1)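 72 hr, 37 degree celsius; NPC 8-pt / MIPE 11-pt dose response; compound pinned in DMSO; CellTiter-Glo, 10 min RT, luminescence; normalized to no-cell and DMSO controls.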
On the % scale 0 is the no-effect control and ±100 the full control effect.

Compound	activity change, negative = cytotoxicity
C#C[C@]1(OC(C)=O)CC[C@H]2[C@@H]3CCC4=C[C@@H](OC(C)=O)CC[C@@H]4[C@H]3CC[C@@]21C	inactive: 1.1%
Cc1nnc(NS(=O)(=O)c2ccc(N)cc2)s1	inactive: -9.18%
Oc1ccc(C2CNCCc3c2cc(O)c(O)c3Cl)cc1 (stereo not given)	inactive: -12.1%
CN1C(CCl)Nc2cc(Cl)c(S(N)(=O)=O)cc2S1(=O)=O (stereo not given)	inactive: -4.56%
Nc1nc2c(ncn2COCCO)c(=O)[nH]1	inactive: -6.8%
COc1cccc(OC)c1C(=O)N[C@@H]1C(=O)N2[C@@H]1SC(C)(C)[C@@H]2C(=O)O	inactive: 11.2%
CC(C)Oc1ccc2c(=O)c(-c3ccccc3)coc2c1	inactive: 7.13%
Cc1cccc(C)c1OCC(=O)N[C@@H](Cc1ccccc1)[C@@H](O)C[C@H](Cc1ccccc1)NC(=O)[C@H](C(C)C)N1CCCNC1=O	inactive: 3.05%
N[C@@H]1CONC1=O	inactive: 0.978%
Nc1[nH]c(=O)ncc1F	inactive: 1.99%
CCCCc1nc(Cl)c(CO)n1Cc1ccc(-c2ccccc2-c2nn[nH]n2)cc1	inactive: 8.57%

The compounds below were run on MKL-1 in the same assay as above. Settings: MCC and control cell lines, CellTiter-Glo viability, 72 h; at 46 µM (top of the series).
Procedure, shortened: as §1

Compound	activity change, negative = cytotoxicity
Cc1nnc(NS(=O)(=O)c2ccc(N)cc2)s1	inactive: -4.83%
Oc1ccc(C2CNCCc3c2cc(O)c(O)c3Cl)cc1 (stereo not given)	inactive: -16.6%
CN1C(CCl)Nc2cc(Cl)c(S(N)(=O)=O)cc2S1(=O)=O (stereo not given)	inactive: -1.36%
Nc1nc2c(ncn2COCCO)c(=O)[nH]1	inactive: -3.5%
COc1cccc(OC)c1C(=O)N[C@@H]1C(=O)N2[C@@H]1SC(C)(C)[C@@H]2C(=O)O	inactive: 0.615%
CC(C)Oc1ccc2c(=O)c(-c3ccccc3)coc2c1	inactive: 2.33%
Cc1cccc(C)c1OCC(=O)N[C@@H](Cc1ccccc1)[C@@H](O)C[C@H](Cc1ccccc1)NC(=O)[C@H](C(C)C)N1CCCNC1=O	inactive: 15.8%
N[C@@H]1CONC1=O	inactive: -7.66%
Nc1[nH]c(=O)ncc1F	inactive: 13.5%
CCCCc1nc(Cl)c(CO)n1Cc1ccc(-c2ccccc2-c2nn[nH]n2)cc1	inactive: 3.16%

What follows are compounds tested on MKL-2 in the same assay as above. Settings: MCC and control cell lines, CellTiter-Glo viability, 72 h; at 46 µM (top of the series).
Procedure, shortened: as §1

Compound	activity change, negative = cytotoxicity
Cc1nnc(NS(=O)(=O)c2ccc(N)cc2)s1	inactive: 6.98%
Oc1ccc(C2CNCCc3c2cc(O)c(O)c3Cl)cc1 (stereo not given)	inactive: -26.9%
CN1C(CCl)Nc2cc(Cl)c(S(N)(=O)=O)cc2S1(=O)=O (stereo not given)	inactive: -8.25%
Nc1nc2c(ncn2COCCO)c(=O)[nH]1	inactive: 10.3%
COc1cccc(OC)c1C(=O)N[C@@H]1C(=O)N2[C@@H]1SC(C)(C)[C@@H]2C(=O)O	inactive: 4.1%
CC(C)Oc1ccc2c(=O)c(-c3ccccc3)coc2c1	inactive: -16.8%
N[C@@H]1CONC1=O	inactive: -7.71%
Nc1[nH]c(=O)ncc1F	inactive: 6.04%
CCCCc1nc(Cl)c(CO)n1Cc1ccc(-c2ccccc2-c2nn[nH]n2)cc1	inactive: 7.5%
